scFv variants of Ab-91 (heavy chain) against a SARS-CoV-2 spike peptide

Values reported by Engelhart et al. 2022, doi:10.1038/s41597-022-01779-4 (FLAb copy).

Target: peptide PDVDLGDISGINAS, taken from heptad repeat 2 (HR2) of SARS-CoV-2 spike.

Parent scFv Ab-91: VL joined to VH by a (GGGGS)3 linker. Changes lie in the heavy chain CDRs alone.
VL: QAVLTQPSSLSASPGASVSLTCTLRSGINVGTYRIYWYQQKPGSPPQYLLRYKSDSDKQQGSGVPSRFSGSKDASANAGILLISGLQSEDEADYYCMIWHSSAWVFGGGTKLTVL
VH: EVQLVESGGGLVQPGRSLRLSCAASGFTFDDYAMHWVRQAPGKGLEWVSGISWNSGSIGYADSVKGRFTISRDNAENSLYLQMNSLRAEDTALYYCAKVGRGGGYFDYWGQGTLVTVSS

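Phage display of a naive human antibody library on the peptide gave the parent. The library (AAYL51) carries one to three amino acid substitutions per variant, with no insertions or deletions. The assay is AlphaSeq: two haploid yeast populations carry antibody and antigen on their surface. Pairs that bind mate more often; barcode pairs of the diploids are counted by sequencing. Scores were corrected for input abundance and mapped to Kd with protein pairs of known affinity run in the same pool. Each pool was mated in three replicate cultures.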

Variants are written as CDR1, CDR2 and CDR3 of the heavy chain (limits as in the source). Parent: GFTFDDYAMH, GISWNSGSIGYADSVK, VGRGGGYFDY.
This list gathers variants with a substitution at S63 (VH, numbered from residue 1).
Numbers give log10(Kd / nM), so 0 is 1 nM and 3 is 1 µM. Smaller is tighter.
Averages over replicates are reported, and they cover detected replicates only.
"no signal" means that the variant was in the library but no mating with the target was seen in any replicate; the authors take this as a sign of poor binding, and no number exists.
Order: sorted from the lowest average up, undetected variants last.
Background: pairings of library AAYL51 with three empty control strains gave a value in 21% of cases (median 4.54, 5th percentile 3.26). Values in that range, when seen in few replicates, are hard to tell from nonspecific mating. Also given: how often the same scFv was detected with the empty control strains.

- GFTFDDYAMH / GISWNSGSIGYADNVK / VGRGGGYFDY -> 0.71 (3 of 3 replicates; controls 6 of 9)
- GFTFDDYAMH / GISWNSGSIGYADHVK / VGRGGGYKDY -> 1.47 (3 of 3 replicates; controls 0 of 9)
- GFTFDDYAMT / GISWNSGSIGYADIVS / VGRGGGYFDY -> 2.32 (1 of 3 replicates; controls 0 of 9)
- GFTFDDYAMH / GISWNMGSIGYADYVK / VGAGGGYFDY -> 2.57 (2 of 3 replicates; controls 0 of 9)
- GFTFDDYAMH / GISWNSGLIGYADKVK / VGRGGGYDDY -> 2.63 (3 of 3 replicates; controls 2 of 9)
- GFTFDQYAMH / GISWNSGSIGYADYVK / VGRGGGYFDY -> 3.07 (2 of 3 replicates; controls 2 of 9)
- GFTFDDYAMH / GISWNSGSIGYADKVW / VGRGGGYFDY -> 3.15 (3 of 3 replicates; controls 1 of 9)
- GFTFDDYAMH / GISWNSGSIGYADWVW / VGRGGGYFDG -> 3.16 (3 of 3 replicates; controls 1 of 9)
- GFTFDDYAMH / GISWNSGSIGYADNVK / VGRGGGQFDY -> 3.25 (2 of 3 replicates; controls 2 of 9)
- GFTFDDYAMH / GISWNSGSIGYADRVK / VGRGGGYSDD -> 3.44 (1 of 3 replicates; controls 1 of 9)
- GKTFDDYAMH / GISENSGSIGYADTVK / VGRGGGYFDY -> 3.54 (1 of 3 replicates; controls 0 of 9)
- GFTFDDYAMH / GISWGSGSIGYADDVK / VGRGGGYFDY -> 3.76 (2 of 3 replicates; controls 3 of 9)
- GFTFDDYAMH / GISWNSGSIGYADYVT / VGHGGGYFDY -> 3.79 (3 of 3 replicates; controls 1 of 9)
- GFTFDDMAMH / GISWNSGQIGYADRVK / VGRGGGYFDY -> 3.94 (1 of 3 replicates; controls 1 of 9)
- GFVFDDYAMH / GISWNSGSIGYADRNK / VGRGGGYFDY -> 4.06 (1 of 3 replicates; controls 3 of 9)
- GFTFDDYAMH / GITWNSGSIGYSDHVK / VGRGGGYFDY -> 4.11 (1 of 3 replicates; controls 1 of 9)
- DFTRDDYAMH / GISWNSGSIGYADGVK / VGRGGGYFDY -> 4.50 (1 of 3 replicates; controls 0 of 9)
- GFTFDDYAMH / GISWNYGSIGYADWVK / VGRGGGYYDY -> 4.92 (2 of 3 replicates; controls 1 of 9)
- GFTFDDYAMH / GISWNWGSIGYPDVVK / VGRGGGYFDY -> 4.94 (3 of 3 replicates; controls 3 of 9)
- GRTFDDRAMH / GISWNSGSIGYADNVK / VGRGGGYFDY -> 5.04 (1 of 3 replicates; controls 4 of 9)
- GFTFDDYAMH / GISWNSGSIGYADWVK / VGCGGGYFCY -> 5.07 (1 of 3 replicates; controls 0 of 9)
- GFNFDDYAMH / GIYWNSGSIGYADHVK / VGRGGGYFDY -> 5.20 (1 of 3 replicates; controls 5 of 9)
- GFTFDDYAQH / GISWNSGSIGYADPVW / VGRGGGYFDY -> 5.34 (2 of 3 replicates; controls 6 of 9)
- GFTFDDYAMH / GISWNSGSIDWADQVK / VGRGGGYFDY -> 5.36 (2 of 3 replicates; controls 7 of 9)
- GRTFDDYKMH / GISWNSGSIGYADFVK / VGRGGGYFDY -> 5.50 (2 of 3 replicates; controls 6 of 9)
- GFTFDDYAMH / GIPWNSGSIGYADNVK / VGRGGGYFDS -> 6.06 (2 of 3 replicates; controls 2 of 9)
- GFTCDDYAMH / GISWNGGSIGYADYVK / VGRGGGYFDY -> 6.13 (1 of 3 replicates; controls 3 of 9)
- GFTFDDYAMH / EISWNSGSIGYADNVK / VGRLGGYFDY -> no signal (0 of 3 replicates; controls 1 of 9)
- GFTFDDYAMH / GISWNSGSIGYADISK / VGREGGYFDY -> no signal (0 of 3 replicates; controls 0 of 9)
- GFTFDEYAMH / GISWNSGSIGYAIIVK / VGRGGGYFDY -> no signal (0 of 3 replicates; controls 0 of 9)
- GFTFDDKAMH / GISWNSGSIGYIDEVK / VGRGGGYFDY -> no signal (0 of 3 replicates; controls 0 of 9)
- GFTFDDYAMH / GISWNSGSIGYSDGVK / VGRGGGYFDY -> no signal (0 of 3 replicates; controls 1 of 9)
- GFTFDDYAMH / GIQWNVGSIGYADTVK / VGRGGGYFDY -> no signal (0 of 3 replicates; controls 0 of 9)
- GFTFDDYAMI / GISWNSGSIGYADWVK / VGRGGGYFDY -> no signal (0 of 3 replicates; controls 1 of 9)
- GFTFDDYAMH / GISWNSGSIEYADHVK / VGRGGGYFDG -> no signal (0 of 3 replicates; controls 0 of 9)
- GFTFDDYAMH / GISWNVGSIGYADAQK / VGRGGGYFDY -> no signal (0 of 3 replicates; controls 0 of 9)
- GFTFDDYAMH / GISWNSGSIGYADMVK / VERGLGYFDY -> no signal (0 of 3 replicates; controls 1 of 9)
- GFTFDDYAMH / EISWNSGSIGYADFVK / VGRGNGYFDY -> no signal (0 of 3 replicates; controls 0 of 9)
- GFTFDVYAMH / GISWNSGSIGYADTFK / VGRGGGYFDY -> no signal (0 of 3 replicates; controls 0 of 9)
- GFTKDAYAMH / GISWNSGSIGYADVVK / VGRGGGYFDY -> no signal (0 of 3 replicates; controls 2 of 9)
- GFTFDDYAMH / GISWNSGSIGYWDRGK / VGRGGGYFDY -> no signal (0 of 3 replicates; controls 1 of 9)
- GFTFDDYAMH / GISWNSGSIGYRDNVK / VGRGGHYFDY -> no signal (0 of 3 replicates; controls 0 of 9)
- GFTFDDYVMH / GISWNSGKIGYADTVK / VGRGGGYFDY -> no signal (0 of 3 replicates; controls 3 of 9)
- AFTFDDYAMH / EISWNSGSIGYADWVK / VGRGGGYFDY -> no signal (0 of 3 replicates; controls 0 of 9)
- GFTFDDYAMH / GISWNSGSIGDADAVK / VGRGGGYFDY -> no signal (0 of 3 replicates; controls 0 of 9)

The first 4 entries again:

* GFTFDDYAMH / GISWNSGSIGYADNVK / VGRGGGYFDY = 0.71 (3 of 3 replicates; controls 6 of 9)
* GFTFDDYAMH / GISWNSGSIGYADHVK / VGRGGGYKDY = 1.47 (3 of 3 replicates; controls 0 of 9)
* GFTFDDYAMT / GISWNSGSIGYADIVS / VGRGGGYFDY = 2.32 (1 of 3 replicates; controls 0 of 9)
* GFTFDDYAMH / GISWNMGSIGYADYVK / VGAGGGYFDY = 2.57 (2 of 3 replicates; controls 0 of 9)